# Patent publication US8962658B2, “Fluoralkylcarbonyl-oxadiazoles” (Universite de Droit et de la Sante de Lille 2, priority 2011, dated 2015)
# By UniProt entry, the sequences of proteins in these tests, tags left out. Where a name states a change or a piece, a line headed by the entry shows the natural chain unless it says otherwise.
# UniProt P9WMC1: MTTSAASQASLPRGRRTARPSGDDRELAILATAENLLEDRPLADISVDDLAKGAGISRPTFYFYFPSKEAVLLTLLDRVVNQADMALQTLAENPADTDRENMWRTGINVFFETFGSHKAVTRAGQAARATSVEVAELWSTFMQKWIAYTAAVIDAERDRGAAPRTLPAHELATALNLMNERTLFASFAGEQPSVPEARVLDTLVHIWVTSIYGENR
# Target: EthR binding to its DNA operator (ethA promoter region) (Mycobacterium tuberculosis, UniProt P9WMC1)
# Conditions: concentration of ligand that inhibits 50% of the interaction of EthR with its promoter; SPR
row,SMILES,IC50
1,O=C(CCC(F)(F)F)N1CC[C@@H](c2nc(-c3cccs3)no2)C1 [Compound 2],2000 nM
2,"O=C(CCC(F)(F)F)N1CCC(c2nc(-c3cccs3)no2)CC1 [Compound 3, 4-4-4-trifluoro-1-[4-(3-thiophen-2-yl-[1,2,4]oxadiazol-5-yl)-piperidin-1-yl]butan-1-one, reference compound]",1600 nM
3,"COc1ccc2nc(-c3noc(C4CCN(C(=O)CCC(F)(F)F)CC4)n3)sc2c1 [Compound 7, 4,4,4-Trifluoro-1-{4-[3-(6-methoxy-benzothiazol-2-yl)-1,2,4-oxadiazol-5-yl]-piperidin-1-yl}-butan-1-one]",1000 nM
4,"O=C(CCC(F)(F)F)N1CCC(c2nc(-c3ccccc3)no2)CC1 [Compound 8, 4,4,4-Trifluoro-1-[4-(3-phenyl-1,2,4-oxadiazol-5-yl)-piperidin-1-yl]-butan-1-one]",9100 nM
